Measured values from the NIST ThermoML archive (doi:10.1021/acs.jced.5b00980).
± gives the expanded uncertainty stated by the source.

Assay: activity coefficient (dimensionless); of the first substance listed, at infinite dilution; xn = mol fraction of the nth substance listed
Settings: 100 kPa, Liquid, Chromatography, x1 = 0

Question: Which activity coefficient (328.15 K) does the source give for `CCCCOCCCC` [dibutyl ether] + CCCC[P+](CC)(CCCC)CCCC.CCOP(=O)([O-])OCC here?
Answer: Its activity coefficient is 3.79 ± 0.26.

Question: And the activity coefficient (338.15 K)?
Answer: Its activity coefficient is 3.68 ± 0.25.

Question: And the activity coefficient (348.15 K)?
Answer: The activity coefficient was 3.54 ± 0.24.

Question: And the activity coefficient (358.15 K)?
Answer: Its activity coefficient is 3.42 ± 0.23.

Question: What about the activity coefficient (368.15 K) of the same molecule?
Answer: Its activity coefficient is 3.31 ± 0.23.
